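Assay format: 96-well plates, 48-hour exposure. Here, GI50 denotes the concentration required for 50% inhibition of growth. TGI denotes the concentration required for complete inhibition of growth.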
Tests used:
Experiment in all cases: NCI tumour cell line growth inhibition, 48 h
786-0 renal = test system: 786-0 renal
A549 NSCLC = test system: A549 NSCLC
ACHN renal = test system: ACHN renal
BT-549 breast = test system: BT-549 breast
CAKI-1 renal = test system: CAKI-1 renal
CCRF-CEM leukemia = test system: CCRF-CEM leukemia
COLO 205 colon = test system: COLO 205 colon
DU-145 prostate = test system: DU-145 prostate
EKVX NSCLC = test system: EKVX NSCLC
HCC-2998 colon = test system: HCC-2998 colon
HCT-116 colon = test system: HCT-116 colon
HCT-15 colon = test system: HCT-15 colon
HL-60(TB) leukemia = test system: HL-60(TB) leukemia
HOP-62 NSCLC = test system: HOP-62 NSCLC
HOP-92 NSCLC = test system: HOP-92 NSCLC
HS 578T breast = test system: HS 578T breast
HT29 colon = test system: HT29 colon
IGROV1 ovarian = test system: IGROV1 ovarian
K-562 leukemia = test system: K-562 leukemia
KM12 colon = test system: KM12 colon
M14 melanoma = test system: M14 melanoma
MALME-3M melanoma = test system: MALME-3M melanoma
MCF7 breast = test system: MCF7 breast
MDA-MB-231 breast = test system: MDA-MB-231 breast
MDA-MB-435 = test system: MDA-MB-435
MDA-N = test system: MDA-N
MOLT-4 leukemia = test system: MOLT-4 leukemia
NCI-H226 lung = test system: NCI-H226 lung
NCI-H23 lung = test system: NCI-H23 lung
NCI-H322M lung = test system: NCI-H322M lung
NCI-H522 lung = test system: NCI-H522 lung
NCI/ADR-RES ovarian = test system: NCI/ADR-RES ovarian
OVCAR-3 ovarian = test system: OVCAR-3 ovarian
OVCAR-4 ovarian = test system: OVCAR-4 ovarian
OVCAR-5 ovarian = test system: OVCAR-5 ovarian
OVCAR-8 ovarian = test system: OVCAR-8 ovarian
PC-3 prostate = test system: PC-3 prostate
RPMI-8226 leukemia = test system: RPMI-8226 leukemia
RXF 393 renal = test system: RXF 393 renal
SF-268 CNS = test system: SF-268 CNS
SF-295 CNS = test system: SF-295 CNS
SF-539 CNS = test system: SF-539 CNS
SK-MEL-2 melanoma = test system: SK-MEL-2 melanoma
SK-MEL-28 melanoma = test system: SK-MEL-28 melanoma
SK-MEL-5 melanoma = test system: SK-MEL-5 melanoma
SK-OV-3 ovarian = test system: SK-OV-3 ovarian
SN12C renal = test system: SN12C renal
SNB-75 CNS = test system: SNB-75 CNS
SR leukemia = test system: SR leukemia
SW-620 colon = test system: SW-620 colon
T-47D breast = test system: T-47D breast
U251 CNS = test system: U251 CNS
UACC-257 melanoma = test system: UACC-257 melanoma
UACC-62 melanoma = test system: UACC-62 melanoma
UO-31 renal = test system: UO-31 renal

With O=C(OC1CN2CCC1CC2)C1(c2ccccc2)COc2ccccc21 (stereo not given) the GI50 (786-0 renal) was 24.2 µM, the TGI (786-0 renal) was greater than 100 µM and the GI50 (A549 NSCLC) was 39 µM. The TGI (A549 NSCLC) was greater than 100 µM, the GI50 (ACHN renal) was 18.9 µM and the TGI (ACHN renal) was 41.1 µM. It also gave a GI50 (BT-549 breast) of 19.3 µM, a TGI (BT-549 breast) of 59.2 µM and a GI50 (CAKI-1 renal) of 21.5 µM. The TGI (CAKI-1 renal) was 72.2 µM, the GI50 (CCRF-CEM leukemia) was 19 µM and the TGI (CCRF-CEM leukemia) was 55.7 µM. The GI50 (COLO 205 colon) was 14.7 µM, the TGI (COLO 205 colon) was 27.8 µM and the GI50 (DU-145 prostate) was 66.4 µM. For the same molecule, the TGI (DU-145 prostate) was greater than 100 µM, the GI50 (EKVX NSCLC) was 50.4 µM and the TGI (EKVX NSCLC) was greater than 100 µM. It also gave a GI50 (HCC-2998 colon) of 14.8 µM, a TGI (HCC-2998 colon) of 28 µM and a GI50 (HCT-116 colon) of 19.5 µM. It also gave a TGI (HCT-116 colon) of 46.3 µM, a GI50 (HCT-15 colon) of 23.7 µM and a TGI (HCT-15 colon) of 79.6 µM. For the same molecule, the GI50 (HL-60(TB) leukemia) was 16.6 µM, the TGI (HL-60(TB) leukemia) was 33.8 µM and the GI50 (HOP-62 NSCLC) was 17.4 µM. For the same molecule, the TGI (HOP-62 NSCLC) was 32.4 µM, the GI50 (HOP-92 NSCLC) was 14.4 µM and the TGI (HOP-92 NSCLC) was 54.7 µM. It also gave a GI50 (HS 578T breast) of 16.7 µM, a TGI (HS 578T breast) of 41 µM and a GI50 (HT29 colon) of 16.2 µM. It also gave a TGI (HT29 colon) of 34.7 µM, a GI50 (IGROV1 ovarian) of 30.4 µM and a TGI (IGROV1 ovarian) greater than 100 µM. It also gave a GI50 (K-562 leukemia) of 17.4 µM, a TGI (K-562 leukemia) of 37.3 µM and a GI50 (KM12 colon) of 23.4 µM. It also gave a TGI (KM12 colon) of 53.5 µM, a GI50 (M14 melanoma) of 15.2 µM and a TGI (M14 melanoma) of 28.8 µM. For the same molecule, the GI50 (MALME-3M melanoma) was 16.8 µM, the TGI (MALME-3M melanoma) was 31.5 µM and the GI50 (MCF7 breast) was 15.9 µM. It also gave a TGI (MCF7 breast) of 29.9 µM, a GI50 (MDA-MB-231 breast) of 15 µM and a TGI (MDA-MB-231 breast) of 36.8 µM. The GI50 (MDA-MB-435) was 20 µM, the TGI (MDA-MB-435) was 49.6 µM and the GI50 (MDA-N) was 21.5 µM. For the same molecule, the TGI (MDA-N) was 74.2 µM, the GI50 (MOLT-4 leukemia) was 17.6 µM and the TGI (MOLT-4 leukemia) was 46.2 µM. For the same molecule, the GI50 (NCI-H226 lung) was 16.3 µM, the TGI (NCI-H226 lung) was 39.8 µM and the GI50 (NCI-H23 lung) was 41.6 µM. It also gave a TGI (NCI-H23 lung) greater than 100 µM, a GI50 (NCI-H322M lung) of 37.5 µM and a TGI (NCI-H322M lung) greater than 100 µM. The GI50 (NCI-H522 lung) was 19.9 µM, the TGI (NCI-H522 lung) was 38.4 µM and the GI50 (NCI/ADR-RES ovarian) was 27.4 µM. It also gave a TGI (NCI/ADR-RES ovarian) greater than 100 µM, a GI50 (OVCAR-3 ovarian) of 26.7 µM and a TGI (OVCAR-3 ovarian) greater than 100 µM. The GI50 (OVCAR-4 ovarian) was 31.1 µM, the TGI (OVCAR-4 ovarian) was greater than 100 µM and the GI50 (OVCAR-5 ovarian) was 17.2 µM. It also gave a TGI (OVCAR-5 ovarian) of 40 µM, a GI50 (OVCAR-8 ovarian) of 35.1 µM and a TGI (OVCAR-8 ovarian) greater than 100 µM. For the same molecule, the GI50 (PC-3 prostate) was 24 µM, the TGI (PC-3 prostate) was greater than 100 µM and the GI50 (RPMI-8226 leukemia) was 23.6 µM. It also gave a TGI (RPMI-8226 leukemia) of 52.5 µM, a GI50 (RXF 393 renal) of 13.5 µM and a TGI (RXF 393 renal) of 80.5 µM. The GI50 (SF-268 CNS) was 34.7 µM, the TGI (SF-268 CNS) was 77.2 µM and the GI50 (SF-295 CNS) was 16.9 µM. For the same molecule, the TGI (SF-295 CNS) was 32 µM, the GI50 (SF-539 CNS) was 11.6 µM and the TGI (SF-539 CNS) was 24 µM. The GI50 (SK-MEL-2 melanoma) was 16.5 µM, the TGI (SK-MEL-2 melanoma) was 32.6 µM and the GI50 (SK-MEL-28 melanoma) was 18.9 µM. It also gave a TGI (SK-MEL-28 melanoma) of 33.7 µM, a GI50 (SK-MEL-5 melanoma) of 16.3 µM and a TGI (SK-MEL-5 melanoma) of 29.8 µM. The GI50 (SK-OV-3 ovarian) was 48.2 µM, the TGI (SK-OV-3 ovarian) was greater than 100 µM and the GI50 (SN12C renal) was 31.4 µM. It also gave a TGI (SN12C renal) greater than 100 µM, a GI50 (SNB-75 CNS) of 19.3 µM and a TGI (SNB-75 CNS) of 59.9 µM. For the same molecule, the GI50 (SR leukemia) was 17.8 µM, the TGI (SR leukemia) was 42 µM and the GI50 (SW-620 colon) was 15.1 µM. It also gave a TGI (SW-620 colon) of 29.2 µM, a GI50 (T-47D breast) of 15.3 µM and a TGI (T-47D breast) of 36.3 µM. For the same molecule, the GI50 (U251 CNS) was 19.1 µM, the TGI (U251 CNS) was 49.1 µM and the GI50 (UACC-257 melanoma) was 16.9 µM. It also gave a TGI (UACC-257 melanoma) of 31 µM, a GI50 (UACC-62 melanoma) of 18.9 µM and a TGI (UACC-62 melanoma) of 36 µM. It also gave a GI50 (UO-31 renal) of 18.8 µM and a TGI (UO-31 renal) of 75.9 µM.
